# Literature values, collected in US20150164812A1, “Porous Tablets As Carriers For Liquid Formulations” (Veloxis Pharmaceuticals A/S, priority 2004, published 2015).
# Conditions: Table 1 Poorly-Soluble Drug Candidates
substance,measurement,value
Medroxyprogesterone,Solubility In Water,Insoluble
